Biological target: PA tag antigen fused with maltose-binding protein (MBP-PA) (human)
Test: BLI

- Kd: 2.06 nM
- koff: 0.00055 s⁻¹
Substance: wild-type anti-PA tag Fab (NZ-1)

— paper doi:10.1101/2024.09.13.612811 (bioRxiv, 2024)
